According to patent publication US20040138160A1, “Preventive/therapeutic method for cancer” (priority 2001, published 2004):

Test system: HER2 high expression human breast cancer cell BT-474
Assay: Anti-tumor effect, combined use (BT-474 cancer-bearing nude mice)
Type: in vivo, mouse
Conditions: compound B4 20 mg/kg/day orally, divided into two per day, 14 days, trastuzumab 10 mg/kg intraperitoneally twice a week, 2 weeks, or both
From the text: Formula: Tumor volume=longer diameter×shorter diameter×shorter diameter×(1/2)

With trastuzumab [reference compound] the “growth rate T/C (%)” value was −17%.
